Earlier results, collected in patent US11532831B1, “Redox-active compounds and uses thereof” (Palo Alto Research Center Incorporated, priority 2021, dated 2022).

Key:
[1] = ferricyanide form; cited from earlier work
[2] = cited from earlier work

Q: Which results are given for ferrocyanide/ferricyanide?
A: Chemical and electrochemical stability: light sensitivity [1]: light sensitive); Solubility at pH 7 [2]: 0.6M
